The text below walks through data of ChEMBL document CHEMBL1122707, “Pyrroloisoquinoline antidepressants. Potent, enantioselective inhibition of tetrabenazine-induced ptosis and neuronal uptake of norepinephrine, dopamine, and serotonin” (J Med Chem, 1984).

The chains behind the UniProt entries cited, without tags or fusion partners.
UniProt P31652, whole entry: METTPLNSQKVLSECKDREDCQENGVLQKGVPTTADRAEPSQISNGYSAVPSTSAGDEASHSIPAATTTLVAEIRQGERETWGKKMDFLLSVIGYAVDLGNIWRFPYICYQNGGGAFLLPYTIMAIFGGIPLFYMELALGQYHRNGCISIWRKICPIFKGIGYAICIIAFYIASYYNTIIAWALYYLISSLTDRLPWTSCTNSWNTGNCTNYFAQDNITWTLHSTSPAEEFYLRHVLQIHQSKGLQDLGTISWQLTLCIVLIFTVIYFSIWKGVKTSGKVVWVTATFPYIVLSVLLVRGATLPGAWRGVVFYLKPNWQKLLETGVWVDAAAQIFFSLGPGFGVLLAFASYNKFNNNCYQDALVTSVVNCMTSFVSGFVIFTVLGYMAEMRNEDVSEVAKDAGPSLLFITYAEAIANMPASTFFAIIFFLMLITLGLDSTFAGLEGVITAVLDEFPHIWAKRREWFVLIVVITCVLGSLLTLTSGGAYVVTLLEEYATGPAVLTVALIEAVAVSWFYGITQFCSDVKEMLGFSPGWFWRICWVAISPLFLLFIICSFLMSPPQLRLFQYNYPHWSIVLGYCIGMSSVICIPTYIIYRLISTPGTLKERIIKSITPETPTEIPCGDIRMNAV

The structures appear in SMILES notation.

The target of the assay is Sodium-dependent serotonin transporter (Rattus norvegicus, UniProt P31652). Kind of assay: Inhibition of serotonin (5-HT) uptake into rat brain synaptosomes. The format is subcellular.
For `Clc1ccc(C2CN3CCC[C@H]3c3ccccc32)cc1Cl` (stereo partly drawn), the Ki turned out to be 1.8 nM. In other words, the single-digit nanomolar range.
The figure for `c1ccc(C2CN3CCCCC3c3ccccc32)cc1` (stereo not drawn) is above 500 nM; for `Br.Nc1ccc([C@@H]2CN3CCC[C@H]3c3ccccc32)cc1` it is above 500 nM; for `Br.Nc1ccc([C@H]2CN3CCC[C@H]3c3ccccc32)cc1` it is 44 nM.
In turn, `Cl.FC(F)(F)c1cccc([C@H]2CN3CCC[C@H]3c3ccccc32)c1` showed a Ki of 23 nM. Against the preceding compound, the Ki is about 1.9-fold lower.
For `Cl.FC(F)(F)c1cccc([C@@H]2CN3CCC[C@H]3c3ccccc32)c1` the value was above 100 nM.
Compound `Br.O=[N+]([O-])c1ccc(C2CN3CCC[C@H]3c3ccccc32)cc1` (stereo partly drawn) showed an inhibitory constant (Ki) of 5 nM.
For `Br.COc1ccc(C2CN3CCC[C@H]3c3ccccc32)cc1` (stereo partly drawn) the value was 1.7 nM; for `Br.Oc1ccc(C2CN3CCC[C@H]3c3ccccc32)cc1` (stereo partly drawn), 3.2 nM.
Regarding `Br.Oc1ccc(C2CN3CCC[C@H]3c3ccccc32)cc1O` (stereo partly drawn), the Ki came to 33.1 nM.
For `Br.COc1ccc(C2CN3CCC[C@H]3c3ccccc32)cc1OC` (stereo partly drawn) the value was 18.1 nM.
For `COc1ccc2c(c1)CN(C)CC2c1ccc(Cl)c(Cl)c1` (stereo not drawn) [DICLOFENSINE] the value was 18.4 nM.
For `CN1Cc2c(N)cccc2C(c2ccccc2)C1` (stereo not drawn) [NOMIFENSINE] the value was 874 nM.
